In patent US20050010368A1, “Method for the prediction of binding targets and the design of ligands” (priority 1997, published 2005):

Details: compared with wild type pepstatin A

Question: For Iva-Val-Val-Sta-Phe-Sta, which water solubility is on record?
Answer: low water solubility
